## Antibody variant affinities, Ab-91 heavy chain, assay 2

The target is the same throughout: PDVDLGDISGINAS, from the HR2 region of SARS-CoV-2 spike.

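The starting antibody came from a phage panning campaign against this peptide. In library AAYL51, one, two or three CDR residues were substituted; doubles and triples were drawn at random. AlphaSeq pools MATa yeast showing the antibodies with MATalpha yeast showing the peptide. The frequency of each diploid, read from paired DNA barcodes, reflects how well the two displayed proteins bind. The ratio of observed to expected reads was calibrated, replicate by replicate, on BCL2-family standards whose Kd was known from biolayer interferometry. Mating was done three times.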

The variants keep the light chain, the linker and the frameworks of Ab-91 (scFv order VL, three GGGGS repeats, VH).
VL: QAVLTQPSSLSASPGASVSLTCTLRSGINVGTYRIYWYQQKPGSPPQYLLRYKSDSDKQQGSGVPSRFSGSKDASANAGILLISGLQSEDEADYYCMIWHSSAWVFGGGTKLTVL
VH: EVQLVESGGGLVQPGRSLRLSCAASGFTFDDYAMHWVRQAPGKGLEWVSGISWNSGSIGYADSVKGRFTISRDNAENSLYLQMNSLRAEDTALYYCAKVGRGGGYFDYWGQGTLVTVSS

Substitutions are numbered in sequence along the VH above, starting at 1 (not Kabat). All variants listed here change D62 of the VH, counted from its first residue. Each Kd is an estimate from the mating assay, the geometric mean of the replicates in which the pair was seen; lower is stronger. "no signal" marks a missing value. The strain was present, yet no cells mated with the target were sequenced in any replicate, which points to weak or no binding. For reference, the parent read 72 nM as the reference entry and 7.5 nM as a member of this library.

The variant D62R/G102Q/D107V showed 77 µM (1 of 3 replicates; controls 0 of 9).
The variant D31P/I58L/D62C showed 110 µM (2 of 3 replicates; controls 2 of 9).
The variant M34W/I51E/D62N showed no signal (0 of 3 replicates; controls 1 of 9).
The variant M34I/I51W/D62V showed no signal (0 of 3 replicates; controls 2 of 9).
The variant H35W/D62I/V99K showed 12 µM (1 of 3 replicates; controls 0 of 9).
The variant I51P/D62I/D107L showed no signal (0 of 3 replicates; controls 0 of 9).
The variant G56I/D62K/D107G showed 13 µM (1 of 3 replicates; controls 0 of 9).
The variant D62W showed no signal (0 of 3 replicates; controls 3 of 9).
The variant G26M/D62P/K65W showed 210 µM (1 of 3 replicates; controls 1 of 9).
The variant D62L/G100S/F106D showed 48 µM (3 of 3 replicates; controls 0 of 9).
The variant S55W/D62H/F106N showed 46 µM (2 of 3 replicates; controls 5 of 9).
The variant G26D/H35D/D62F showed no signal (0 of 3 replicates; controls 3 of 9).
The variant D62I/V99G/Y108R showed no signal (0 of 3 replicates; controls 0 of 9).
The variant D30H/D62I/G103F showed 44 nM (3 of 3 replicates; controls 0 of 9).
The variant I58D/D62C showed 33 µM (2 of 3 replicates; controls 5 of 9).
The variant T28G/D62F/Y105G showed 21 µM (2 of 3 replicates; controls 0 of 9).
The variant H35M/S55G/D62N showed no signal (0 of 3 replicates; controls 5 of 9).
The variant F27H/D31Q/D62R showed 7.4 µM (3 of 3 replicates; controls 3 of 9).
The variant I51W/D62A/G100C showed 320 µM (2 of 3 replicates; controls 2 of 9).
The variant I51K/D62W showed 40 µM (1 of 3 replicates; controls 1 of 9).
The variant F29S/D62E/Y108Q showed 1.1 µM (2 of 3 replicates; controls 0 of 9).
The variant A33M/D62S/K65A showed 630 µM (2 of 3 replicates; controls 1 of 9).
The variant Y60D/D62W showed no signal (0 of 3 replicates; controls 0 of 9).
The variant A33F/D62S/G100T showed 540 µM (2 of 3 replicates; controls 5 of 9).
The variant D62F/G103Q/Y105T showed 36 µM (1 of 3 replicates; controls 1 of 9).
The variant D62E/V99F/D107H showed no signal (0 of 3 replicates; controls 0 of 9).
The variant D31H/D62L/V64Q showed 6.7 µM (1 of 3 replicates; controls 5 of 9).
The variant D62T/V99H showed 18 µM (1 of 3 replicates; controls 1 of 9).
The variant D62V/V64M showed no signal (0 of 3 replicates; controls 0 of 9).
The variant I58P/G59E/D62Y showed no signal (0 of 3 replicates; controls 1 of 9).
The variant D62Q/S63Y showed 120 nM (3 of 3 replicates; controls 0 of 9).
The variant G50V/D62V/R101T showed no signal (0 of 3 replicates; controls 2 of 9).
The variant D62V/G104R/F106K showed 5.1 µM (1 of 3 replicates; controls 0 of 9).
The variant G56Q/D62G/V99L showed 930 nM (3 of 3 replicates; controls 2 of 9).
The variant D31E/H35Y/D62W showed 110 µM (1 of 3 replicates; controls 1 of 9).
The variant S52P/D62E/R101G showed no signal (0 of 3 replicates; controls 0 of 9).
The variant D31K/D62W showed 23 nM (3 of 3 replicates; controls 1 of 9).
The variant S55P/D62K showed 35 µM (1 of 3 replicates; controls 1 of 9).
The variant D62E/V99R showed 63 nM (3 of 3 replicates; controls 2 of 9).
The variant G26I/D62T/K65I showed no signal (0 of 3 replicates; controls 0 of 9).
The variant G26T/D62G/G100W showed no signal (0 of 3 replicates; controls 6 of 9).
The variant T28D/S55G/D62M showed 38 µM (3 of 3 replicates; controls 4 of 9).
The variant W53I/D62R/K65R showed 4.7 µM (1 of 3 replicates; controls 2 of 9).
The variant D62P showed 8.2 µM (3 of 3 replicates; controls 0 of 9).
The variant Y60P/D62W/G102L showed 98 µM (2 of 3 replicates; controls 5 of 9).
The variant D31W/S52W/D62M showed no signal (0 of 3 replicates; controls 2 of 9).
The variant D31H/H35G/D62Q showed 1.7 µM (1 of 3 replicates; controls 6 of 9).
The variant D62F/V99W/D107H showed 230 µM (1 of 3 replicates; controls 1 of 9).
The variant S52D/Y60I/D62P showed 440 nM (1 of 3 replicates; controls 2 of 9).
The variant A61R/D62Y/Y105D showed no signal (0 of 3 replicates; controls 1 of 9).
The variant H35D/D62L/G100Y showed no signal (0 of 3 replicates; controls 2 of 9).
The variant G59I/D62N/S63T showed no signal (0 of 3 replicates; controls 1 of 9).
The variant W53R/D62R/Y105E showed 20 µM (3 of 3 replicates; controls 5 of 9).
The variant S55W/G56A/D62A showed no signal (0 of 3 replicates; controls 1 of 9).
The variant D62I/V64S/F106D showed no signal (0 of 3 replicates; controls 0 of 9).

Background: pairings of library AAYL51 with three empty control strains gave a value in 21% of cases (median 34 µM, 5th percentile 1.8 µM). Values in that range, when seen in few replicates, are hard to tell from nonspecific mating. For each scFv, signals with the empty controls are counted beside the result.

Data: MIT Lincoln Laboratory AlphaSeq set, Engelhart et al. 2022, doi:10.1038/s41597-022-01779-4, as distributed in FLAb.